## Apparent affinities of Ab-14 variants for a coronavirus HR2 peptide

Binding partner: SARS-CoV-2 spike HR2 peptide, sequence PDVDLGDISGINAS.

The variants keep the heavy chain, the linker and the frameworks of Ab-14 (scFv order VH, a (GGGGS)3 linker, VL).
VH: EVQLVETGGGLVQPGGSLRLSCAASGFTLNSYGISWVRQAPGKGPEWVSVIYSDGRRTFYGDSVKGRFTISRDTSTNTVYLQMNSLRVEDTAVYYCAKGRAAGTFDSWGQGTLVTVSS
VL: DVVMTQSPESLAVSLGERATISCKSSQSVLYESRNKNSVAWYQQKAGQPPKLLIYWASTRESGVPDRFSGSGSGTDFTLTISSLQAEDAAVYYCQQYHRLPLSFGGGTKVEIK

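Phage display of a naive human antibody library on the peptide gave the parent. These sequences belong to a second round, designed from the earlier measurements on random variants of the parent. Several design methods are mixed in this list. The scFvs were displayed on barcoded MATa yeast, the peptide on MATalpha yeast. After mating in shaken culture at 30 °C for 16 h, diploids were selected and their barcode pairs sequenced. A regression on co-assayed BCL2-family reference pairs converts the normalised counts of each replicate to an apparent Kd. Each pool was mated in six replicate cultures.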

Each variant is given by its three light chain CDRs, as the data file delimits them; those of the parent are KSSQSVLYESRNKNSVA, WASTRES, QQYHRLPLS.
This list holds designs with at most six substitutions.
The Kd shown is the geometric mean over detected replicates; a lower Kd is a better binder.
An entry "nd" has no value in the source: the pair was not observed among the diploids in any replicate. This suggests poor binding but is not conclusive.

For KSSQSELYESTNKNSVA | YASTRES | QMYHYLPIS, the assay gave 12 nM (1 of 6 replicates). The variant KSSQSVLYESRNKNPVA | WASTRES | YQYHRLPWS showed nd (0 of 6 replicates). For KLSWSVLFESRNKNSVA | DASTRES | QQYHRLPLS, the assay gave 310 pM (6 of 6 replicates). With KSSQSWLYESRNKNPVA | AASTRED | QQYVRLPLS the result was 4.7 nM (6 of 6 replicates). For KLRQSTLYESRNQNSVA | NASTRES | QQYHRLPLS, the assay gave 1.5 nM (6 of 6 replicates).

With KSSQSVLAESRNKNSVA | WASTRES | QQYARLPLS the result was 34 nM (4 of 6 replicates). For KSSQNVLYESENKNSVA | WASTRES | QQYHRLPLS, the assay gave 13 nM (6 of 6 replicates). The variant FLSQSVLYESRNKNSVA | GASTRES | QQYHRLPLS showed 1.0 nM (6 of 6 replicates). The variant KSQQSVLYESRNKNNVA | HASTRED | QQYHRLPLS gave 1.3 nM (6 of 6 replicates). For KFSQSVLYESRNKNSVA | MASHREH | QQYHRLPLS, the assay gave 6.6 nM (6 of 6 replicates).

The variant KVPQSGLYESRNKNSVA | NASTRES | QQYHRLPLS showed 770 pM (6 of 6 replicates). With KLSQSVMYESRNKNNVA | DASTRES | QQYHRLPLS the result was 240 pM (6 of 6 replicates). For KSSKSVFYEIRNKNCVA | WASTRES | QAYHRLPLS, the assay gave nd (0 of 6 replicates). The variant HSSPSELYESRNGNSVA | NASTRES | QQYHRLPLS gave 810 pM (6 of 6 replicates). The variant KVSQSVEYEDRNKNSVA | MASQRCS | QQYHRLPLS showed 4.2 nM (6 of 6 replicates).

The variant KSSQEVNYPSFNKNSVA | WASTRES | QQYHRLPLS gave 110 nM (4 of 6 replicates). With KSSQSVLYESRNKNSVA | NASTREI | QQYHRLPLH the result was nd (0 of 6 replicates). The variant KLSQSVLYEERNKNSVA | NGSTRES | QQYHRLPLS gave 380 pM (6 of 6 replicates). The variant KSSQSVVDESRNKNSVA | WASTRED | QQYHRLPLS showed 8.5 nM (6 of 6 replicates). The variant KRSQSVLYESRNKQSVA | SASTRES | EQYHRLPLS showed 320 nM (4 of 6 replicates).

With KLSQSVLYESRNKNSVA | NASTRRS | QQYHRLPLS the result was 920 pM (6 of 6 replicates). For KLSQSVGYESRNKNSVA | DASTRES | QQYHRLPLS, the assay gave 290 pM (6 of 6 replicates). The variant KVSQSMLYESRNKNSVA | NASTRLS | QQYHRLPLS showed 1.4 nM (6 of 6 replicates). The variant KMSQSVLYEWRNKNSVA | WAETRES | QQYHRLPLS gave 32 nM (6 of 6 replicates). For KLSPSVLGMSRNKNSVA | NASTRES | QQYHRLPLS, the assay gave 1.9 nM (6 of 6 replicates).

The variant KLSQSHLYESRNKNSVA | DASTRES | QQYHRLPLS gave 690 pM (6 of 6 replicates). The variant KSHQSVLYESRNKNSVA | WASTRES | QQYHRLPLS showed 660 nM (3 of 6 replicates). With KSSQSVLYESPNKNSVA | WASTRES | QQYHRLPLS the result was 29 nM (6 of 6 replicates). For KSSQSVLYESRDKNSVA | WASTRES | QQYHRLPLS, the assay gave 27 nM (6 of 6 replicates). With KSMQSVTYESRNKNSVA | WASTRES | QQYHRLPLS the result was 96 nM (5 of 6 replicates).

With KLDQGALYESRNKNSVA | GASTRES | QQYHRLPLS the result was 650 pM (6 of 6 replicates). The variant KLPQSELYESRNKNAVA | NASQRES | QQYHRLPLS showed 500 pM (6 of 6 replicates). For KSSKSVLFESRNKNSVA | DASTRES | QQYHRLPLS, the assay gave 1.1 nM (6 of 6 replicates). With KSSQSVMYDSREKNSVA | AASTRES | QQYHRLPLS the result was 14 nM (6 of 6 replicates). The variant KSSQSVLLESRNKNQVA | WASTRES | QQYHRLPLS gave 320 nM (1 of 6 replicates).

The variant KSSQSFLYESRNKNSVA | GASTRES | QQYHRLTLF gave nd (0 of 6 replicates). With KSSQSVLYESGNKNAVA | GASMRGE | QQYHRLPLS the result was 4.6 nM (6 of 6 replicates).

Values of this round are not directly comparable with the first-round values of the same sequences.
In the paper, a design with two or fewer of six values counts as a poor binder.
Three control strains display no target. For all light chain designs, 4% of the pairings with them gave a signal, with a median of 430 nM and one signal in twenty below 38 nM, so weak values seen in few replicates may be background.
The parent sequence was in this pool as ten entries: three were never detected, three once, and four in most replicates, with averages from 2.2 nM to 240 nM.

Data: MIT Lincoln Laboratory AlphaSeq set, Li et al. 2023, doi:10.1038/s41467-023-39022-2, as distributed in FLAb.